Yeast mating assay 2: variants of the scFv Ab-95

All variants were tested on one target, the spike HR2 peptide PDVDLGDISGINAS (SARS-CoV-2).

The variants keep the heavy chain, the linker and the frameworks of Ab-95 (scFv order VH, a 15-residue (Gly4Ser)3 linker, VL).
VH: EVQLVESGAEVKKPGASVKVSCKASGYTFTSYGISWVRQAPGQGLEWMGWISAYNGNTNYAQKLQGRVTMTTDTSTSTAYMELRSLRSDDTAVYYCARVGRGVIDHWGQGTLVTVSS
VL: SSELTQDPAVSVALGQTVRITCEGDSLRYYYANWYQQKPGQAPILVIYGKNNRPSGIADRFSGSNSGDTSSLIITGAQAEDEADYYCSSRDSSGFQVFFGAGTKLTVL

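Phage display of a naive human antibody library on the peptide gave the parent. The library (AAYL52) carries one to three amino acid substitutions per variant, with no insertions or deletions. The assay is AlphaSeq: two haploid yeast populations carry antibody and antigen on their surface. The frequency of each diploid, read from paired DNA barcodes, reflects how well the two displayed proteins bind. The ratio of observed to expected reads was calibrated, replicate by replicate, on BCL2-family standards whose Kd was known from biolayer interferometry. There are three technical replicates.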

The parent's light chain CDRs are EGDSLRYYYAN, GKNNRPS, SSRDSSGFQVF; each variant's own CDRs replace them letter for letter. All variants listed here change G94 of the VL, counted from its first residue. Each Kd is an estimate from the mating assay, the geometric mean of the replicates in which the pair was seen; lower is stronger. "nd" marks a missing value. The strain was present, yet no cells mated with the target were sequenced in any replicate, which points to weak or no binding. Empty control strains, which show no peptide, gave a signal in 28% of pairings with library AAYL52; the median was 8.2 µM and 95% of these signals were weaker than 800 nM. No background was subtracted.

Variant EGDSLRYYYAN / GYNNRPS / SSRDSSAFRVF showed 1.7 µM (1 of 3 replicates). For EEDSLRYYYAN / GKNNRPS / SSRDSSFFQVV, the assay gave nd (0 of 3 replicates). For EGDVLRYYYAN / GKNNRPS / SSRDSSPFYVF, the assay gave 13 µM (3 of 3 replicates). With EGDSLRYFYAR / GKNNRPS / SSRDSSSFQVF the result was 21 µM (2 of 3 replicates). For EGDSERYYYAN / GKNNRPS / ESRDSSRFQVF, the assay gave 2.5 µM (2 of 3 replicates). Variant EGDVLRYYYAN / GKNNRPS / SSRDSSQPQVF showed 3.1 µM (1 of 3 replicates). With EGDSLCYYKAN / GKNNRPS / SSRDSSEFQVF the result was nd (0 of 3 replicates). For EGDSLRYYYAN / GKNNRES / SSRDSSIFQVF, the assay gave 300 nM (3 of 3 replicates). Variant EGDSLRYYYAN / VKNNRPS / SSRDSSTGQVF showed nd (0 of 3 replicates).

Variant EGDSLRYYYAN / GKTNRPS / SSRDSSDFQVF showed nd (0 of 3 replicates). For QGDSLRYFYAN / GKNNRPS / SSRDSSIFQVF, the assay gave 930 nM (1 of 3 replicates). For EGDSLRGYYAY / GKNNRPS / SSRDSSMFQVF, the assay gave 170 µM (1 of 3 replicates). For EGDSLRYFYAN / GKNNRPS / SSTDSSVFQVF, the assay gave 1.4 µM (3 of 3 replicates). Variant EGDSLRYYYEN / GKNNRPS / SSRDSSYEQVF showed 6.2 µM (1 of 3 replicates). Variant EGDGLRYYYAN / GKNNRPS / SFRDSSRFQVF showed 660 nM (3 of 3 replicates). With QGDSLRHYYAN / GKNNRPS / SSRDSSVFQVF the result was 370 nM (3 of 3 replicates). For EGDSLRYYYAN / GKENRPS / SSRDSSNFQVS, the assay gave nd (0 of 3 replicates). For EGDSLRYYYEN / DKNNRPS / SSRDSSSFQVF, the assay gave 5.6 µM (2 of 3 replicates).

For EGDSLRYYYAD / GKNNRPS / SSWDSSVFQVF, the assay gave nd (0 of 3 replicates). With EGPSLRYYYAN / GKNNRPS / SSRDSLQFQVF the result was 1.9 µM (3 of 3 replicates). For EGDSLRYYYAN / GKNNRPS / SSRDSSQFIVF, the assay gave 2.7 µM (3 of 3 replicates). With EGDSLRYYYAN / GKNNTPS / SSRDSSTFNVF the result was 11 µM (3 of 3 replicates). Variant EGDSLRYYYAN / GKNNRPS / SSRFSSSFQRF gave 160 nM (3 of 3 replicates). For EGDSLRTYYAN / GKNNRPI / SSRDSSNFQVF, the assay gave 57 nM (3 of 3 replicates). Variant EGDSLRYYYAN / GKNNRPS / SSRDTARFQVF showed 620 nM (1 of 3 replicates). Variant EGDSLRYYYAN / GKNNRPS / SSRDSADRQVF gave 3.6 µM (3 of 3 replicates). Variant EGDSLRYYYAN / GKNNEPS / SSLDSSNFQVF showed 4.2 µM (3 of 3 replicates).

Variant EGDSLRYYYAN / GKNNRPS / SSRDSSWFQVF showed 200 nM (3 of 3 replicates). Variant EGDSLRYYYAN / GKNNLPS / SSRDSSYFQVR gave 120 µM (1 of 3 replicates). For EGDSLRYYYAV / GKNNRYS / SSRDSSHFQVF, the assay gave nd (0 of 3 replicates). For EGDSLRSYYAN / GKRNRPS / SSRDSSQFQVF, the assay gave 4.7 µM (3 of 3 replicates). Variant EGDSLRYYYIN / GKNNRPS / SSRDSSRFQVF showed 5.3 µM (2 of 3 replicates). With EGDSLRYYYAN / GKNNRPS / SSRDSARFQCF the result was 110 nM (3 of 3 replicates). Variant EGHSLRYYYWN / GKNNRPS / SSRDSSPFQVF showed 20 µM (1 of 3 replicates). Variant EGDSLRYYYAN / GKNNRPS / SSNDSSVCQVF showed 4.2 µM (3 of 3 replicates). Variant EGDSLRYYYAN / GKNNRPS / SSRDSSVFAPF gave 61 nM (3 of 3 replicates).

Variant EGESHRYYYAN / GKNNRPS / SSRDSSMFQVF showed 76 µM (1 of 3 replicates). Variant EGDSLRYYYAN / GKNNRKS / SSRDSSKFQVF gave 11 µM (1 of 3 replicates). Variant EGDSLRYYYAN / GKNNRPS / SSRDSVNFQVF showed 1.2 µM (1 of 3 replicates). Variant EGDSLRYYYAF / GKWNRPS / SSRDSSMFQVF showed 9.7 µM (1 of 3 replicates).

For reference, the parent read 200 nM as the reference entry and 180 nM as a member of this library.

Data: MIT Lincoln Laboratory AlphaSeq set, Engelhart et al. 2022, doi:10.1038/s41597-022-01779-4, as distributed in FLAb.